Source: patent US20190284192A1, “NITROGENOUS MACROCYCLIC COMPOUND, PREPARATION METHOD THEREFOR, PHARMACEUTICAL COMPOSITION AND APPLICATION THEREOF” (LUOXIN PHARMACEUTICAL (SHANGHAI) CO., LTD., priority 2016, published 2019)

System: MV-4-11 subcutaneous xenograft tumor
Test: Anti-tumor efficacy in vivo, MV-4-11 subcutaneous xenograft model
Design: species or system BALB/c nude mice
Details: for P, tumor volume difference between the control group and the administrated group: Two-way Anova Bonferroni post-test

## CCNC(=O)C[C@@H]1N=C(c2ccc(Cl)cc2)c2cc(OC)ccc2-n2c(C)nnc21 [GSK762]
TRTV/CRTV, intragastric QD*14, ABBV-075 3, GSK762 15, 4009 10 mg/kg, 15th day
  T/C %: 60.33%
Day 1 after administration, ABBV-075 3, GSK762 15, 4009 10 mg/kg
  P, tumor volume difference between the control group and the administrated group: P > 0.05
Day 4 after administration, ABBV-075 3, GSK762 15, 4009 10 mg/kg
  P, tumor volume difference between the control group and the administrated group: P > 0.05
Day 6 after administration, ABBV-075 3, GSK762 15, 4009 10 mg/kg
  P, tumor volume difference between the control group and the administrated group: P > 0.05
Day 8 after administration, ABBV-075 3, GSK762 15, 4009 10 mg/kg
  P, tumor volume difference between the control group and the administrated group: P > 0.05
Day 11 after administration, ABBV-075 3, GSK762 15, 4009 10 mg/kg
  P, tumor volume difference between the control group and the administrated group: P < 0.05 (*)
Day 13 after administration, ABBV-075 3, GSK762 15, 4009 10 mg/kg
  P, tumor volume difference between the control group and the administrated group: P < 0.01 (**)
Day 15 after administration, ABBV-075 3, GSK762 15, 4009 10 mg/kg
  P, tumor volume difference between the control group and the administrated group: P < 0.001 (***)
From 11th to 15th day of administration, GSK762 15 mg/kg
  tumor volume TGI (%): less than 58%
Intragastric QD*14, ABBV-075 3, GSK762 15, 4009 10 mg/kg, 1st day
  Average tumor volume, Treatement starts 1st day: 137.82 ± 18.64 mm^3
Intragastric QD*14, ABBV-075 3, GSK762 15, 4009 10 mg/kg, 4th day
  Tumor volume TGI (%) 4th day: 88.15%
Intragastric QD*14, ABBV-075 3, GSK762 15, 4009 10 mg/kg, 6th day
  Tumor volume TGI (%) 6th day: 65.11%
Intragastric QD*14, ABBV-075 3, GSK762 15, 4009 10 mg/kg, 8th day
  Tumor volume TGI (%) 8th day: 60.5%
Intragastric QD*14, ABBV-075 3, GSK762 15, 4009 10 mg/kg, 11th day
  Tumor volume TGI (%) 11th day: 51.86%
Intragastric QD*14, ABBV-075 3, GSK762 15, 4009 10 mg/kg, 13th day
  Tumor volume TGI (%) 13th day: 51.9%
Intragastric QD*14, ABBV-075 3, GSK762 15, 4009 10 mg/kg, 15th day
  Tumor volume TGI (%) 15th day: 46.58%
Intragastric QD*14, ABBV-075 3, GSK762 15, 4009 10 mg/kg, 15th day, 10 mg/kg
  Average tumor volume, Treatement ends 15th day: 617.02 mm^3 and 617.02 ± 131.69 mm^3

Where “and” joins values, the source holds several entries; their conditions need not be identical. Identical values can stand only once.
